{"sequences": {"note": "Protein sequences, listed by entry. Tags and fused reporters are not part of them.", "UniProt P02554, whole entry": "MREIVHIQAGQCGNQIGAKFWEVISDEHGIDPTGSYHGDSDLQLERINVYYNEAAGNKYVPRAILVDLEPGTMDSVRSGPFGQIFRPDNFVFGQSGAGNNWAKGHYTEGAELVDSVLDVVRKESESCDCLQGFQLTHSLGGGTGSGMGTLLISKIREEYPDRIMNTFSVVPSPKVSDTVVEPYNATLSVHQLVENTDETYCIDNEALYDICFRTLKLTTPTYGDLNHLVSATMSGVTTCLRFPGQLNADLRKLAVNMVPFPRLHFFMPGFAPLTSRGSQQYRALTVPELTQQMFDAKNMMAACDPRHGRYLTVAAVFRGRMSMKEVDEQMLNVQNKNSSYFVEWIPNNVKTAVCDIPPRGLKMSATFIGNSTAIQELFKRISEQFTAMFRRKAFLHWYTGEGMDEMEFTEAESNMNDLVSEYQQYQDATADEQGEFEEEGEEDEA"}, "source": "patent US9944597B2", "about": "“Polysubstituted pyrroles having microtubule-disrupting, cytotoxic and antitumor activities and methods of use thereof” (THE BOARD OF REGENTS OF THE UNIVERSITY OF TEXAS SYSTEM, priority 2013, dated 2018)", "key": {"[1]": {"target": "colchicine binding site on tubulin (Sus scrofa, UniProt P02554)", "test": "Colchicine site binding, fluorometric assay"}, "[2]": {"target": "T1, purified porcine brain tubulin (Sus scrofa, UniProt P02554)", "T1 construct": "of Purified Porcine Brain Tubulin; from tissue; host or cells: porcine brain", "test": "Inhibition of polymerization of purified tubulin (absorbance at 340 nm)", "format": "biochemical"}}}
{"compound": "COc1ccc(/C=C\\c2cc(OC)c(OC)c(OC)c2)cc1O", "note": "[CA-4, Combretastatin A-4, reference compound]", "values": [{"measurement": "inhibition of colchicine binding to tubulin", "setting": "[1]; at 10 μM", "result": "approximately 80%"}, {"measurement": "effect on colchicine binding (FIG. 9)", "setting": "[1]; result in words", "result": "inhibits colchicine binding"}, {"measurement": "% Inhibition of Tubulin Polymerization", "setting": "[2]; compound at 2 μM", "result": 16, "unit": "%"}, {"measurement": "% Inhibition of Tubulin Polymerization", "setting": "[2]; compound at 10 μM", "result": 82, "unit": "%"}]}
